SMILES strings stand for the structures. The list shows a part of the results, in another mix than the full data. The source made the active and inactive calls.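 Rule for the calls: active = inhibition of 50% or more; inactive = inhibition below 50%.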

This experiment is described as follows: blockers of yeast NLRP3/ASC/caspase-1 reporter – luminescence, uHTS, primary screen (AID 2825).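 Note: plate controls were induced DMSO wells for no effect and uninduced yeast grown without galactose for full effect.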 The following applies: Yeast reconstituted NLRP3/ASC/caspase-1, beta-gal luminescence, 24 h; at 10 µM; stronger effect = higher value.
Take `Cc1cc(C)cc(OP(C)(=O)Nc2ccc(SC(F)(F)F)cc2)c1` (centres undefined): the inhibition is inactive: -1.89%. Turning to `Cc1cccc(C)c1OP(C)(=O)Nc1ccc(SC(F)(F)F)cc1` (centres undefined), the inhibition was inactive: -0.731%. In the case of `CP(=O)(Nc1ccc(SC(F)(F)F)cc1)Oc1ccc(Cl)cc1` (centres undefined) it was inactive: 28.9%. The value for `CP(=O)(Oc1ccccc1)OC(c1ccccc1)C(F)(F)F` (centres undefined) was inactive: 14.7%. As to `CP(=O)(Nc1ccccc1Br)Oc1ccccc1` (centres undefined), the inhibition is inactive: -3.15%. Regarding `COc1ccccc1OP(C)(=O)Nc1ccccc1` (centres undefined), the inhibition was inactive: 6.92%. In the case of `CP(=S)(Nn1cnnc1)Oc1ccccc1` (centres undefined) it was inactive: 4.21%; in that of `CP(=O)(Nc1ccc(SC(F)(F)F)cc1)Oc1ccccc1` (centres undefined), inactive: 2.75%. As to `CCCOc1ccc(NP(C)(=O)Oc2ccc(Cl)cc2)cc1` (centres undefined), the inhibition was inactive: 24.4%. In the case of `COc1ccccc1OP(C)(=O)Nc1c(C)cccc1C` (centres undefined) it was inactive: 7.85%. In the case of `CN1CCCCC1COC(=O)C1(O)c2ccccc2CCc2ccccc21` (centres undefined) it was inactive: -6.64%; in that of `O=[N+]([O-])c1cc([N+](=O)[O-])c(Nc2nnnn2CCO)c([N+](=O)[O-])c1`, inactive: 15.5%. The value for `CC1=C2N=C(C=C3N=C(C(C)=C4[N-][C@@](C)([C@@H]5N=C1[C@](C)(CCC(=O)NC[C@@H](C)OP(=O)([O-])O[C@H]1[C@@H](O)[C@@H](n6cnc7cc(C)c(C)cc76)O[C@@H]1CO)[C@H]5CC(N)=O)[C@@](C)(CC(N)=O)[C@@H]4CCC(N)=O)[C@@](C)(CC(N)=O)[C@@H]3CCC(N)=O)C(C)(C)[C@@H]2CCC(N)=O.[C-]#N.[Co+3]` was inactive: 27%. Consider `CCOC(=O)C(CC)C1=NC(C)(C)Cc2ccccc21.O=[N+]([O-])c1cc([N+](=O)[O-])c(O)c([N+](=O)[O-])c1` (centres undefined), for which the inhibition was inactive: 6.63%. Turning to `Cc1nc2ccc3ccccc3c2s1.O=[N+]([O-])c1cc([N+](=O)[O-])c(O)c([N+](=O)[O-])c1`, the inhibition is inactive: 6.44%.

As to `O=[N+]([O-])c1cc([N+](=O)[O-])c(-c2cnn(-c3ccccc3)c2)c([N+](=O)[O-])c1`, the inhibition was inactive: 12.8%.

As for `O=[N+]([O-])c1cc([N+](=O)[O-])c(-n2nnc3ccccc32)c([N+](=O)[O-])c1`, the inhibition was inactive: 5.83%. On to `Cc1ccc(C)c(NP(C)(=O)Oc2ccccc2)c1` (centres undefined), for which the inhibition was inactive: -4.27%.

Regarding `CP(=O)(Nc1cccc(Br)c1)Oc1ccccc1` (centres undefined), the inhibition is inactive: 26%. Take `Cc1cc(C)cc(OP(C)(=O)Nc2ccccn2)c1` (centres undefined): the inhibition was inactive: 12%. Consider `CCOC(=O)c1ccc(NP(C)(=O)Oc2cc(C)cc(C)c2)cc1` (centres undefined), for which the inhibition is inactive: 10.5%. In the case of `Cc1cc(C)cc(OP(C)(=O)Nc2ccc(C)cc2C)c1` (centres undefined) it was inactive: 21.6%; in that of `COc1ccccc1OP(C)(=O)Nc1cccc(Br)c1` (centres undefined), inactive: 8.18%; in that of `O=C(O)c1cccc(Nc2c([N+](=O)[O-])cc([N+](=O)[O-])cc2[N+](=O)[O-])c1`, inactive: 24.7%.

A word on the inhibition: it is the drop in the measured response relative to a control, in per cent.

For the origin of these results see PubChem BioAssay AID2825 (Sanford-Burnham Center for Chemical Genomics, 2010).
